Source: patent publication EP2768830B1, “APOPTOSIS-INDUCING AGENTS FOR THE TREATMENT OF CANCER AND IMMUNE AND AUTOIMMUNE DISEASES” (AbbVie Inc., priority 2011, dated 2013)

Experiment: in vivo
Details: rat, in vivo, po, 1 mg/kg

| SMILES | bioavailability [%] |
| --- | --- |
| Cc1c(-c2ccc(N3CCc4cccc(C(=O)Nc5nc6ccccc6s5)c4C3)nc2C(=O)O)cnn1CC1CCCCO1 (stereo not shown) [Example 154, 6-[8-(1,3-benzothiazol-2-ylcarbamoyl)-3,4-dihydroisoquinolin-2(1H)-yl]-3-[5-methyl-1-(tetrahydro-2H-pyran-2-ylmethyl)-1H-pyrazol-4-yl]pyridine-2-carboxylic acid] | 22 |
| COC1(Cn2ncc(-c3ccc(N4CCc5cccc(C(=O)Nc6nc7ccccc7s6)c5C4)nc3C(=O)O)c2C)CCCC(C)(C)C1 (stereo not shown) [Example 157, 6-[8-(1,3-benzothiazol-2-ylcarbamoyl)-3,4-dihydroisoquinolin-2(1H)-yl]-3-{1-[(1-methoxy-3,3-dimethylcyclohexyl)methyl]-5-methyl-1H-pyrazol-4-yl}pyridine-2-carboxylic acid] | 30 |

Same assay, conditions: rat, plasma, po, 5 mg/kg

| SMILES | bioavailability [%] |
| --- | --- |
| COCCC1(Cn2ncc(-c3ccc(N4CCc5cccc(C(=O)Nc6nc7ccccc7s6)c5C4)nc3C(=O)O)c2C)CCCCC1 [Example 90, 6-[8-(1,3-benzothiazol-2-ylcarbamoyl)-3,4-dihydroisoquinolin-2(1H)-yl]-3-(1-{[1-(2-methoxyethyl)cyclohexyl]methyl}-5-methyl-1H-pyrazol-4-yl)pyridine-2-carboxylic acid] | 44 |
| Cc1c(-c2ccc(N3CCc4cccc(C(=O)Nc5nc6ccccc6s5)c4C3)nc2C(=O)O)cnn1Cc1ccccc1OCC1CCOCC1 [Example 99, 6-[8-(1,3-benzothiazol-2-ylcarbamoyl)-3,4-dihydroisoquinolin-2(1H)-yl]-3-{5-methyl-1-[2-(tetrahydro-2H-pyran-4-ylmethoxy)benzyl]-1H-pyrazol-4-yl}pyridine-2-carboxylic acid] | 19 |
| COCCOc1ccccc1Cn1ncc(-c2ccc(N3CCc4cccc(C(=O)Nc5nc6ccccc6s5)c4C3)nc2C(=O)O)c1C [Example 89, 6-[8-(1,3-benzothiazol-2-ylcarbamoyl)-3,4-dihydroisoquinolin-2(1H)-yl]-3-{1-[2-(2-methoxyethoxy)benzyl]-5-methyl-1H-pyrazol-4-yl}pyridine-2-carboxylic acid] | 13 |
| COCCOC1(Cn2ncc(-c3ccc(N4CCc5cccc(C(=O)Nc6nc7ccccc7s6)c5C4)nc3C(=O)O)c2C)CCCCC1 [Example 101, 6-[8-(1,3-benzothiazol-2-ylcarbamoyl)-3,4-dihydroisoquinolin-2(1H)-yl]-3-(1-{[1-(2-methoxyethoxy)cyclohexyl]methyl}-5-methyl-1H-pyrazol-4-yl)pyridine-2-carboxylic acid] | 40 |
| Cc1c(-c2ccc(N3CCc4cccc(C(=O)Nc5nc6ccccc6s5)c4C3)nc2C(=O)O)cc(C#N)n1Cc1ccccc1 [Example 129, 6-[8-(1,3-benzothiazol-2-ylcarbamoyl)-3,4-dihydroisoquinolin-2(1H)-yl]-3-(1-benzyl-5-cyano-2-methyl-1H-pyrrol-3-yl)pyridine-2-carboxylic acid] | 17 |
| O=C(Nc1nc2ccccc2s1)c1cccc2c1CN(c1ccc(-c3cnn(-c4ccccc4)c3)c(C(=O)O)n1)CC2 [Example 23, 6-[8-(1,3-benzothiazol-2-ylcarbamoyl)-3,4-dihydroisoquinolin-2(1H)-yl]-3-(1-phenyl-1H-pyrazol-4-yl)pyridine-2-carboxylic acid] | 20 |
| COCCCC1(Cn2ncc(-c3ccc(N4CCc5cccc(C(=O)Nc6nc7ccccc7s6)c5C4)nc3C(=O)O)c2C)CCCCCC1 [Example 147, 6-[8-(1,3-benzothiazol-2-ylcarbamoyl)-3,4-dihydroisoquinolin-2(1H)-yl]-3-(1-{[1-(3-methoxypropyl)cycloheptyl]methyl}-5-methyl-1H-pyrazol-4-yl)pyridine-2-carboxylic acid] | 37 |
| CC(c1ccccc1)n1cc(-c2ccc(N3CCc4cccc(C(=O)Nc5nc6ccccc6s5)c4C3)nc2C(=O)O)cn1 (stereo not shown) [Example 5, 6-[8-(1,3-benzothiazol-2-ylcarbamoyl)-3,4-dihydroisoquinolin-2(1H)-yl]-3-[1-(1-phenylethyl)-1H-pyrazol-4-yl]pyridine-2-carboxylic acid] | 19 |
| Cc1c(-c2ccc(N3CCc4cccc(C(=O)Nc5nc6ccccc6s5)c4C3)nc2C(=O)O)cc(C#N)n1CC1(N2CCCCC2)CCCCC1 [Example 131, 6-[8-(1,3-benzothiazol-2-ylcarbamoyl)-3,4-dihydroisoquinolin-2(1H)-yl]-3-(5-cyano-2-methyl-1-{[1-(piperidin-1-yl)cyclohexyl]methyl}-1H-pyrrol-3-yl)pyridine-2-carboxylic acid] | 11 |
| Cc1c(-c2ccc(N3CCc4cccc(C(=O)Nc5nc6ccccc6s5)c4C3)nc2C(=O)O)cnn1CC1CCCC1 [Example 63, 6-[8-(1,3-benzothiazol-2-ylcarbamoyl)-3,4-dihydroisoquinolin-2(1H)-yl]-3-[1-(cyclopentylmethyl)-5-methyl-1H-pyrazol-4-yl]pyridine-2-carboxylic acid] | 20 |
| O=C(Nc1nc2ccccc2s1)c1cccc2c1CN(c1ccc(-c3cn(Cc4ccccc4)nn3)c(C(=O)O)n1)CC2 [Example 122, 6-[8-(1,3-benzothiazol-2-ylcarbamoyl)-3,4-dihydroisoquinolin-2(1H)-yl]-3-(1-benzyl-1H-1,2,3-triazol-4-yl)pyridine-2-carboxylic acid] | 40 |
| Cc1c(Oc2ccccc2)cccc1-c1ccc(N2CCc3cccc(C(=O)Nc4nc5ccccc5s4)c3C2)nc1C(=O)O [Example 110, 6-[8-(1,3-benzothiazol-2-ylcarbamoyl)-3,4-dihydroisoquinolin-2(1H)-yl]-3-(2-methyl-3-phenoxyphenyl)pyridine-2-carboxylic acid] | 36 |
| O=C(Nc1nc2ccccc2s1)c1cccc2c1CN(c1ccc(-c3cnn(CC4CCCCC4)c3C3CC3)c(C(=O)O)n1)CC2 [Example 70, 6-[8-(1,3-benzothiazol-2-ylcarbamoyl)-3,4-dihydroisoquinolin-2(1H)-yl]-3-[1-(cyclohexylmethyl)-5-cyclopropyl-1H-pyrazol-4-yl]pyridine-2-carboxylic acid] | 21 |
| Cc1c(-c2ccc(N3CCc4cccc(C(=O)Nc5nc6ccccc6s5)c4C3)nc2C(=O)O)cnn1CC1(C)CCCCC1 [Example 82, 6-[8-(1,3-benzothiazol-2-ylcarbamoyl)-3,4-dihydroisoquinolin-2(1H)-yl]-3-{5-methyl-1-[(1-methylcyclohexyl)methyl]-1H-pyrazol-4-yl}pyridine-2-carboxylic acid] | 45 |
| COCCC1(Cn2cc(-c3ccc(N4CCc5cccc(C(=O)Nc6nc7ccccc7s6)c5C4)nc3C(=O)O)cn2)CCCCC1 [Example 88, 6-[8-(1,3-benzothiazol-2-ylcarbamoyl)-3,4-dihydroisoquinolin-2(1H)-yl]-3-(1-{[1-(2-methoxyethyl)cyclohexyl]methyl}-1H-pyrazol-4-yl)pyridine-2-carboxylic acid] | 23 |
| O=C(Nc1nc2ccccc2s1)c1cccc2c1CN(c1ccc(-c3cnn(C4CCc5ccccc54)c3)c(C(=O)O)n1)CC2 (stereo not shown) [Example 37, 6-[8-(1,3-benzothiazol-2-ylcarbamoyl)-3,4-dihydroisoquinolin-2(1H)-yl]-3-[1-(2,3-dihydro-1H-inden-1-yl)-1H-pyrazol-4-yl]pyridine-2-carboxylic acid] | 29 |
| Cc1c(OC2CCCCC2)cccc1-c1ccc(N2CCc3cccc(C(=O)Nc4nc5ccccc5s4)c3C2)nc1C(=O)O [Example 114, 6-[8-(1,3-benzothiazol-2-ylcarbamoyl)-3,4-dihydroisoquinolin-2(1H)-yl]-3-[3-(cyclohexyloxy)-2-methylphenyl]pyridine-2-carboxylic acid] | 38 |
| Cc1c(-c2ccc(N3CCc4cccc(C(=O)Nc5nc6ccccc6s5)c4C3)nc2C(=O)O)cc(C#N)n1CC1CCCCC1 [Example 130, 6-[8-(1,3-benzothiazol-2-ylcarbamoyl)-3,4-dihydroisoquinolin-2(1H)-yl]-3-[5-cyano-1-(cyclohexylmethyl)-2-methyl-1H-pyrrol-3-yl]pyridine-2-carboxylic acid] | 32 |
| COCCC(c1ccccc1)n1cc(-c2ccc(N3CCc4cccc(C(=O)Nc5nc6ccccc6s5)c4C3)nc2C(=O)O)cn1 (stereo not shown) [Example 93, 6-[8-(1,3-benzothiazol-2-ylcarbamoyl)-3,4-dihydroisoquinolin-2(1H)-yl]-3-[1-(3-methoxy-1-phenylpropyl)-1H-pyrazol-4-yl]pyridine-2-carboxylic acid] | 33 |
| COCCC1(Cn2ncc(-c3ccc(N4CCc5cccc(C(=O)Nc6nc7ccccc7s6)c5C4)nc3C(=O)NS(C)(=O)=O)c2C)CCCCCC1 [Example 148, N-(1,3-benzothiazol-2-yl)-2-{5-(1-{[1-(2-methoxyethyl)cycloheptyl]methyl}-5-methyl-1H-pyrazol-4-yl)-6-[(methylsulfonyl)carbamoyl]pyridin-2-yl}-1,2,3,4-tetrahydroisoquinoline-8-carboxamide] | 18 |
| O=C(Nc1nc2ccccc2s1)c1cccc2c1CN(c1ccc(-c3cccc(Oc4ccccc4)c3)c(C(=O)O)n1)CC2 [Example 103, 6-[8-(1,3-benzothiazol-2-ylcarbamoyl)-3,4-dihydroisoquinolin-2(1H)-yl]-3-(3-phenoxyphenyl)pyridine-2-carboxylic acid] | 39 |
| Cc1c(-c2ccc(N3CCc4cccc(C(=O)Nc5nc6ccccc6s5)c4C3)nc2C(=O)O)cnn1C[C@@H]1C[C@@H]2C=C[C@H]1C2 [Example 91, 6-[8-(1,3-benzothiazol-2-ylcarbamoyl)-3,4-dihydroisoquinolin-2(1H)-yl]-3-{1-[(1R,2R,4R)-bicyclo[2.2.1]hept-5-en-2-ylmethyl]-5-methyl-1H-pyrazol-4-yl}pyridine-2-carboxylic acid] | 16 |
| O=C(Nc1nc2ccccc2s1)c1cccc2c1CN(c1ccc(-c3cnn(CC4(C(F)(F)F)CCCCC4)c3)c(C(=O)O)n1)CC2 [Example 74, 6-[8-(1,3-benzothiazol-2-ylcarbamoyl)-3,4-dihydroisoquinolin-2(1H)-yl]-3-(1-{[1-(trifluoromethyl)cyclohexyl]methyl}-1H-pyrazol-4-yl)pyridine-2-carboxylic acid] | 23 |
